# Measured values reported in patent US10087225B2, “Formulation of MK2 inhibitor peptides” (MOERAE MATRIX, INC., priority 2015, dated 2018).
# Protein sequences, listed by entry. Tags and fused reporters are not part of them. Lines headed by an entry give the natural chain unless they say otherwise; changes in a name come on top.
# UniProt Q9NQU5: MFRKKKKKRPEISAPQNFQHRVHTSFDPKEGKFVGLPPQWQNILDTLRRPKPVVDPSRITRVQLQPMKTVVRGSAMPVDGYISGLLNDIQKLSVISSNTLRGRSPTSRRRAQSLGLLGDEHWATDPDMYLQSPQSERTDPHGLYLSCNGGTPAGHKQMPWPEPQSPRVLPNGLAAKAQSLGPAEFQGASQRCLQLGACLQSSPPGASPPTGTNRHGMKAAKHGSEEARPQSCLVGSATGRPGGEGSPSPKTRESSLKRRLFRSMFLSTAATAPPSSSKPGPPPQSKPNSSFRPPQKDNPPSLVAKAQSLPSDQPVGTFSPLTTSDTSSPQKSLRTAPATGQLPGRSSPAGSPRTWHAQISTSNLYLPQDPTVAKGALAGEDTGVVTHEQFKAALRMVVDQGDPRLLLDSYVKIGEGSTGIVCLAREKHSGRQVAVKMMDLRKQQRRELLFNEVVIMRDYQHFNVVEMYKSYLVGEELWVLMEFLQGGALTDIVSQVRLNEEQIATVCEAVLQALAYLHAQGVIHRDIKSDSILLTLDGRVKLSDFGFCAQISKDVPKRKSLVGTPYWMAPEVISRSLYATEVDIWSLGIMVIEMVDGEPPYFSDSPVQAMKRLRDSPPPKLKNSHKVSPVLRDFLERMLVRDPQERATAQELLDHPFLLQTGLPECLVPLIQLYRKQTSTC
# What was measured:
# Experiment in all cases: Kinase Profiling Assay
# Assay type in all cases: biochemical
# Conditions in all cases: 100 μM
# c-RAF(h) = c-RAF(h) (Homo sapiens, UniProt P04049)
# JNK2α2(h) = JNK2α2(h) (Homo sapiens, UniProt P45984)
# MST2(h) = biological target: T1, MST2(h) (Homo sapiens, UniProt Q13188)
# T1 sequence (Q13188 1-491): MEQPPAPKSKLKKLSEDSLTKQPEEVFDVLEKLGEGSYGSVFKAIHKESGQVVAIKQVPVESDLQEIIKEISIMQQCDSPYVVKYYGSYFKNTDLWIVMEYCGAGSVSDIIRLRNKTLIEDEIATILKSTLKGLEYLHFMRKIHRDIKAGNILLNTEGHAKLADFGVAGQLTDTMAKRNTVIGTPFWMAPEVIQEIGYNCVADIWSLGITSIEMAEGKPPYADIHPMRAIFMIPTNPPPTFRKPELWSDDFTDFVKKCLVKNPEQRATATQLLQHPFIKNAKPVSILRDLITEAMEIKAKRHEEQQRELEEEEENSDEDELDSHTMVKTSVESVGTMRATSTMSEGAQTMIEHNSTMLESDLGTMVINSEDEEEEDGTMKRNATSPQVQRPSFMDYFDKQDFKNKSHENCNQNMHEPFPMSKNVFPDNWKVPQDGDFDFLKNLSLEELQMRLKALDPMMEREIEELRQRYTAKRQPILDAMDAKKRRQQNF
# TAO3(h) = biological target: T2, TAO3(h) (Homo sapiens, UniProt Q9H2K8)
# T2 sequence (Q9H2K8 1-898): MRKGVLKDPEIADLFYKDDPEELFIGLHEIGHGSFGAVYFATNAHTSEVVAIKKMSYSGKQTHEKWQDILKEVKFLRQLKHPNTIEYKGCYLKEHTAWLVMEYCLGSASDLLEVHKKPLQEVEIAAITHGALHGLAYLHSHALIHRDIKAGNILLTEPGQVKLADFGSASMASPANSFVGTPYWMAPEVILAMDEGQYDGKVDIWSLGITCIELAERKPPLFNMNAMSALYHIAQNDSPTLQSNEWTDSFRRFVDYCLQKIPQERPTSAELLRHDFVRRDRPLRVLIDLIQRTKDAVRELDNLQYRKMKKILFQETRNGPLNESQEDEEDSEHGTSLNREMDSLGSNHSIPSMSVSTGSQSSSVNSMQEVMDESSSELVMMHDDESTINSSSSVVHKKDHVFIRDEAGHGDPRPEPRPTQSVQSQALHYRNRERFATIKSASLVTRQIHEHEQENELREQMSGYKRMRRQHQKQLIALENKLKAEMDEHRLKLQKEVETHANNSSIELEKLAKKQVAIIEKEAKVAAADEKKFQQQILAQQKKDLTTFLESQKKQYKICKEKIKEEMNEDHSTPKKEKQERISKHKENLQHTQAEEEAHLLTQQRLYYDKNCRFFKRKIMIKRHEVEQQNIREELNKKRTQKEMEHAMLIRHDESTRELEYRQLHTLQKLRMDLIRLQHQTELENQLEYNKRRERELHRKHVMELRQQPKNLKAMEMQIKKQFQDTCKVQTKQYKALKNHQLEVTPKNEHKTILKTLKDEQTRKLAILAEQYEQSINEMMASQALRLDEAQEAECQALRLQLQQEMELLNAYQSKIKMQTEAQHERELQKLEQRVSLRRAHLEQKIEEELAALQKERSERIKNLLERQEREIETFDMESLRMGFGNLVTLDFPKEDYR
# MKK7β(h) = biological target: T3, MKK7β(h) (Homo sapiens, UniProt O14733)
# T3 sequence (O14733 1-419): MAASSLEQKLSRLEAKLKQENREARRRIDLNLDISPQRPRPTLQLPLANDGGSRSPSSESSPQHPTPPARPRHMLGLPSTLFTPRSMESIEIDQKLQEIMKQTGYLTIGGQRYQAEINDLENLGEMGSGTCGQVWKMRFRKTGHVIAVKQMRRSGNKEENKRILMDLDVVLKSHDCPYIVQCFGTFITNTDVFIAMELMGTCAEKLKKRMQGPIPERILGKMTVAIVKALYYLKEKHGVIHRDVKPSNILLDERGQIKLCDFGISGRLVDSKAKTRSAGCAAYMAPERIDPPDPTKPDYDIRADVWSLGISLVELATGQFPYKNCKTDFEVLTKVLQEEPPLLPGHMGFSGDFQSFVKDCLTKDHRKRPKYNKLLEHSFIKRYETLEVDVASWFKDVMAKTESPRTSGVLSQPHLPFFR
# PAK6(h) = PAK6(h) (Homo sapiens, UniProt Q9NQU5)
# DDR2(h) = biological target: T4, DDR2(h) (Homo sapiens, UniProt Q16832)
# T4 sequence (Q16832 22-855): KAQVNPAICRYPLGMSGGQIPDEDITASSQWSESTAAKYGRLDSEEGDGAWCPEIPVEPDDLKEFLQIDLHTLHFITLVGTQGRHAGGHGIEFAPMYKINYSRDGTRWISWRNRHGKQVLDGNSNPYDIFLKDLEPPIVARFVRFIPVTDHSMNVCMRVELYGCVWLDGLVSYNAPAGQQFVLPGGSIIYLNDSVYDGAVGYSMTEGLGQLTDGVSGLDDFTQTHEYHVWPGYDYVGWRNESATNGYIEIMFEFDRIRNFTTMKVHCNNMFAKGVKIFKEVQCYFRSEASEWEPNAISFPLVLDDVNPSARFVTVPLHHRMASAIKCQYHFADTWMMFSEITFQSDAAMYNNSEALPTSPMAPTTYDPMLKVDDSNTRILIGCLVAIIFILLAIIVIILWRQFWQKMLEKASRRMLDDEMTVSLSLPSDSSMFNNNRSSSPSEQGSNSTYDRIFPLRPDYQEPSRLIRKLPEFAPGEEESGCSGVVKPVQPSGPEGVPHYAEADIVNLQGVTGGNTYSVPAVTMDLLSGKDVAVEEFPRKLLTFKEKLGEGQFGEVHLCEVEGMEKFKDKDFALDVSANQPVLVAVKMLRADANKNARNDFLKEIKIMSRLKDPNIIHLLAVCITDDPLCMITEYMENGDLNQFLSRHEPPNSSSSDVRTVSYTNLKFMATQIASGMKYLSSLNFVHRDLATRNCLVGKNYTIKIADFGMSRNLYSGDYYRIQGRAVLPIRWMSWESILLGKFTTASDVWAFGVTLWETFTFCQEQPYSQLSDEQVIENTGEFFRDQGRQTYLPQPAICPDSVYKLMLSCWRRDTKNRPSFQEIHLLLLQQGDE
# cKit(V560G)(h) = cKit(V560G)(h) (Homo sapiens, UniProt P10721, V560G)
sequence,measurement,setting,value
YARAAARQARAKALNRQLGVA (Mammalian) [MMI-0200],% activity,c-RAF(h),115%
same,% activity,JNK2α2(h),109%
same,% activity,MST2(h),104%
same,% activity,TAO3(h),102%
same,% activity,MKK7β(h),117%
same,% activity,PAK6(h),105%
same,% activity,DDR2(h),104%
same,% activity,cKit(V560G)(h),115%
